# Results from patent US8933046B2 (priority 2009, dated 2015).
# System: influenza A/WSN/33 virus
compound,measurement,value
CCN1/C(=C/C(C)=O)Sc2ccc(OC)cc21 [TG003],Influenza virus propagation inhibited,more than 93%
same,reduces influenza virus replication,more than two orders of magnitude
